1 molecule from US20060148020A1, “Inhibitors of gst a3-3 and gst a1-1 for the treatment of cancer” (priority 2002, published 2006) can be followed below.

Chains of the proteins cited; added tags and fusions are not shown. Lines headed by an entry give the natural chain unless they say otherwise; changes in a name come on top.
UniProt P08263: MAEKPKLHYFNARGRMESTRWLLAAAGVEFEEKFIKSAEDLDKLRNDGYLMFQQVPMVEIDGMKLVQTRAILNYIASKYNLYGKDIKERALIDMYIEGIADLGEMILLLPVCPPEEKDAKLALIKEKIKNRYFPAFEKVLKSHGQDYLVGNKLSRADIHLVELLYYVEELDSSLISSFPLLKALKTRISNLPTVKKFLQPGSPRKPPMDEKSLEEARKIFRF
UniProt P09210: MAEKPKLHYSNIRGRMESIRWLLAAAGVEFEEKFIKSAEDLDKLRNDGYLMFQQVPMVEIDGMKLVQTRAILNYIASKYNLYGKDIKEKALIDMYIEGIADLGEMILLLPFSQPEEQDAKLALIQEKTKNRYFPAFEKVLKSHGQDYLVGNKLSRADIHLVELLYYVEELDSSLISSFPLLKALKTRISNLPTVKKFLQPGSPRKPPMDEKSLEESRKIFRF
UniProt Q16772: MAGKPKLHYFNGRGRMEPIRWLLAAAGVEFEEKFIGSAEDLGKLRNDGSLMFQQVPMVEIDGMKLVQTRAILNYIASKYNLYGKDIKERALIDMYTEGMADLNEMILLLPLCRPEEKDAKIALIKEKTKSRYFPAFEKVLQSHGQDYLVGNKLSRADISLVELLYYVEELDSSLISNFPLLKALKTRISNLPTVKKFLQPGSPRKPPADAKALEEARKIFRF

What all share (assay): Inhibition of GST-catalyzed reaction, standard assay system (IC50)
One experiment addresses GST A1-1 (Homo sapiens, UniProt P08263). The following applies: read-out: IC50 Values GST A1-1, inhibitor concentration giving 50% inhibition of the GST-catalyzed reaction, purified recombinant enzyme.
The target in another experiment is GST A2-2 (Homo sapiens, UniProt P09210). Particulars: read-out: IC50 Values GST A2-2, inhibitor concentration giving 50% inhibition of the GST-catalyzed reaction, purified recombinant enzyme.
A further experiment deals with GST A3-3 (Homo sapiens, UniProt Q16772). The following applies: read-out: IC50 Values GST A3-3, inhibitor concentration giving 50% inhibition of the GST-catalyzed reaction, purified recombinant enzyme.

pIC50: −log10 of the molar value.

`C[CH2][Sn]([Br])([CH2]C)[CH2]C`: the results for the pIC50 at GST A1-1, on GST A2-2 and at GST A3-3 were 5.24, 6.72 and 6.16, respectively.
